Experimental findings from paper PMC12703749, “H2O2–Responsive Anticancer Prodrug: Synthesis, Precision Deuteration in Search of In Vivo Metabolites, and Activation Pathway” (Journal of Medicinal Chemistry, 2025) are described below.

Molecules are shown by their SMILES.

The nature of the data set: In vivo safety in xenograft-bearing mice (mortality, body weight, organ histology). As to conditions: 5 mg/kg IP.

With `CCc1cc(N(CCCl)CCCl)ccc1B(O)O`, the “treatment-related mortality or adverse effects” value (8 weeks) was “no treatment-related mortality or adverse effects occurred”. Further, the “histological examination of major organs (liver, kidneys, spleen, lungs, heart)” value (8 weeks, H&E staining) was “no structural abnormalities or pathological changes”. Also, under “week 1 to week 8”, the body weights result is recorded as “increased steadily”.
